Measurements: patent publication EP4834878A1, “AMIDE DERIVATIVE, PREPARATION METHOD THEREFOR AND USE THEREOF” (dated 2026)

Amino acid sequences for entries named in this document (tags omitted).
UniProt P21397, whole entry: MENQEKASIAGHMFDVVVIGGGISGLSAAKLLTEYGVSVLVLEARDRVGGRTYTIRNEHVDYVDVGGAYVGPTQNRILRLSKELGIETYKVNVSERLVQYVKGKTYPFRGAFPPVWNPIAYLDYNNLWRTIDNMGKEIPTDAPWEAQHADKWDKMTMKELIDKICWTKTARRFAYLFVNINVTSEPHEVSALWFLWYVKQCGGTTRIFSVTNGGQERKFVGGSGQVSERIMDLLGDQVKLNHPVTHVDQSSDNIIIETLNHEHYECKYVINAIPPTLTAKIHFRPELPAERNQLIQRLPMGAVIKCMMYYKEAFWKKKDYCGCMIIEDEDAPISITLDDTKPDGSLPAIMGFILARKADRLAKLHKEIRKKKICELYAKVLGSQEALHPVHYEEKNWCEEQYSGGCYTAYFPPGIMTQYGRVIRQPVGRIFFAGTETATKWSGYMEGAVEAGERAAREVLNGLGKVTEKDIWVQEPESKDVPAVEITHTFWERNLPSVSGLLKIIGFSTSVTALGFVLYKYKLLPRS
UniProt P27338, whole entry: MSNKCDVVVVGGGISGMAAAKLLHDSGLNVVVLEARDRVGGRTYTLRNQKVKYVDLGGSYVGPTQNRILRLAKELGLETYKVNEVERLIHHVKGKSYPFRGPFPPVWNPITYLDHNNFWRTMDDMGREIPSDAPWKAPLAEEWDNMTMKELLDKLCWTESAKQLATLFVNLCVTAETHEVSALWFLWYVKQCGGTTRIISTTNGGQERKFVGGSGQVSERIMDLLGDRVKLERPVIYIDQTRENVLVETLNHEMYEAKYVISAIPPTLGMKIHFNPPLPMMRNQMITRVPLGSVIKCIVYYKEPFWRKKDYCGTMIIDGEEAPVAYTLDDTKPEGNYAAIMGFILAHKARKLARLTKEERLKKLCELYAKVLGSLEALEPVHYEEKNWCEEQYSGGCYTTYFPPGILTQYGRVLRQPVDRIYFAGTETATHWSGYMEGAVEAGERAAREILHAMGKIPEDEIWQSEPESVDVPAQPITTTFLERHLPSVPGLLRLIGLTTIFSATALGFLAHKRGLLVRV

What was measured:
MAO-A = MAO-A (Homo sapiens, UniProt P21397); test: Determination of inhibitory activity of compounds against MAO-A (MAO-Glo Assay, luminescence); conditions: read-out: MAO-A IC50; human monoamine oxidase A, 30 min pre-incubation; compounds in free form
MAO-B = MAO-B (Homo sapiens, UniProt P27338); test: Determination of inhibitory activity of compounds against MAO-B (Amplex Red Monoamine Oxidase Assay Kit, fluorescence); conditions: read-out: MAO-B IC50, benzylamine substrate, 30 min pre-incubation, compounds in free form
DIO mice = test: Test of weight-lowering efficacy of compounds in DIO mice; conditions: 10 mg/kg intragastric once daily; for Mouse weight: group average
[1] = day 0, methanesulfonate salt form
[2] = day 0 vs day 0, methanesulfonate salt form
[3] = day 1, methanesulfonate salt form
[4] = day 1 vs day 0, methanesulfonate salt form
[5] = day 2, methanesulfonate salt form
[6] = day 2 vs day 0, methanesulfonate salt form
[7] = day 3, methanesulfonate salt form
[8] = day 3 vs day 0, methanesulfonate salt form
[9] = day 4, methanesulfonate salt form
[10] = day 4 vs day 0, methanesulfonate salt form
[11] = day 5, methanesulfonate salt form
[12] = day 5 vs day 0, methanesulfonate salt form
[13] = day 6, methanesulfonate salt form
[14] = day 6 vs day 0, methanesulfonate salt form
[15] = day 7, methanesulfonate salt form
[16] = day 7 vs day 0, methanesulfonate salt form
[17] = day 8, methanesulfonate salt form
[18] = day 8 vs day 0, methanesulfonate salt form
[19] = day 9, methanesulfonate salt form
[20] = day 9 vs day 0, methanesulfonate salt form
[21] = day 10, methanesulfonate salt form
[22] = day 10 vs day 0, methanesulfonate salt form
[23] = day 11, methanesulfonate salt form
[24] = day 11 vs day 0, methanesulfonate salt form
[25] = day 12, methanesulfonate salt form
[26] = day 12 vs day 0, methanesulfonate salt form
[27] = day 13, methanesulfonate salt form
[28] = day 13 vs day 0, methanesulfonate salt form
[29] = day 14, methanesulfonate salt form
[30] = day 14 vs day 0, methanesulfonate salt form
[31] = day 15, methanesulfonate salt form
[32] = day 15 vs day 0, methanesulfonate salt form
[33] = day 16, methanesulfonate salt form
[34] = day 16 vs day 0, methanesulfonate salt form
[35] = day 17, methanesulfonate salt form
[36] = day 17 vs day 0, methanesulfonate salt form
[37] = day 18, methanesulfonate salt form
[38] = day 18 vs day 0, methanesulfonate salt form
[39] = day 19, methanesulfonate salt form
[40] = day 19 vs day 0, methanesulfonate salt form
[41] = day 20, methanesulfonate salt form
[42] = day 20 vs day 0, methanesulfonate salt form
[43] = day 21, methanesulfonate salt form
[44] = day 21 vs day 0, methanesulfonate salt form
[45] = day 22, methanesulfonate salt form
[46] = day 22 vs day 0, methanesulfonate salt form
[47] = day 23, methanesulfonate salt form
[48] = day 23 vs day 0, methanesulfonate salt form
[49] = day 24, methanesulfonate salt form
[50] = day 24 vs day 0, methanesulfonate salt form

## C[C@@H](C(N)=O)N1Cc2ccc(-c3ccc(C(F)(F)F)cc3)cc2C1
MAO-A
  IC50: > 10000 nM
MAO-B
  IC50: < 50 nM

## C[C@H](NCc1ccc(-c2ccc(C(F)(F)F)cc2)cc1F)C(N)=O
MAO-A
  IC50: > 10000 nM
DIO mice; [1]
  Mouse weight: 50.1 g
DIO mice; [2]
  Mouse weight change: 0 g
  Mouse weight change rate (%): 0%
DIO mice; [3]
  Mouse weight: 50.1 g
DIO mice; [4]
  Mouse weight change: 0 g
  Mouse weight change rate (%): 0%
DIO mice; [5]
  Mouse weight: 49.6 g
DIO mice; [6]
  Mouse weight change: -0.5 g
  Mouse weight change rate (%): -1%
DIO mice; [7]
  Mouse weight: 49.4 g
DIO mice; [8]
  Mouse weight change: -0.7 g
  Mouse weight change rate (%): -1.4%
DIO mice; [9]
  Mouse weight: 49.8 g
DIO mice; [10]
  Mouse weight change: -0.3 g
  Mouse weight change rate (%): -0.6%
DIO mice; [11]
  Mouse weight: 49.1 g
DIO mice; [12]
  Mouse weight change: -1.0 g
  Mouse weight change rate (%): -2%
DIO mice; [13]
  Mouse weight: 49.1 g
DIO mice; [14]
  Mouse weight change: -1.0 g
  Mouse weight change rate (%): -2%
DIO mice; [15]
  Mouse weight: 48.8 g
DIO mice; [16]
  Mouse weight change: -1.3 g
  Mouse weight change rate (%): -2.6%
DIO mice; [17]
  Mouse weight: 48.9 g
DIO mice; [18]
  Mouse weight change: -1.2 g
  Mouse weight change rate (%): -2.4%
DIO mice; [19]
  Mouse weight: 48.7 g
DIO mice; [20]
  Mouse weight change: -1.4 g
  Mouse weight change rate (%): -2.8%
DIO mice; [21]
  Mouse weight: 48.8 g
DIO mice; [22]
  Mouse weight change: -1.3 g
  Mouse weight change rate (%): -2.6%
DIO mice; [23]
  Mouse weight: 48.6 g
DIO mice; [24]
  Mouse weight change: -1.5 g
  Mouse weight change rate (%): -3%
DIO mice; [25]
  Mouse weight: 48.4 g
DIO mice; [26]
  Mouse weight change: -1.7 g
  Mouse weight change rate (%): -3.4%
DIO mice; [27]
  Mouse weight: 48.1 g
DIO mice; [28]
  Mouse weight change: -2.0 g
  Mouse weight change rate (%): -4%
DIO mice; [29]
  Mouse weight: 47.8 g
DIO mice; [30]
  Mouse weight change: -2.3 g
  Mouse weight change rate (%): -4.6%
DIO mice; [31]
  Mouse weight: 47.6 g
DIO mice; [32]
  Mouse weight change: -2.5 g
  Mouse weight change rate (%): -5%
DIO mice; [33]
  Mouse weight: 47.2 g
DIO mice; [34]
  Mouse weight change: -2.9 g
  Mouse weight change rate (%): -5.8%
DIO mice; [35]
  Mouse weight: 47.2 g
DIO mice; [36]
  Mouse weight change: -2.9 g
  Mouse weight change rate (%): -5.8%
DIO mice; [37]
  Mouse weight: 46.7 g
DIO mice; [38]
  Mouse weight change: -3.4 g
  Mouse weight change rate (%): -6.8%
DIO mice; [39]
  Mouse weight: 46.7 g
DIO mice; [40]
  Mouse weight change: -3.4 g
  Mouse weight change rate (%): -6.8%
DIO mice; [41]
  Mouse weight: 46.1 g
DIO mice; [42]
  Mouse weight change: -4.0 g
  Mouse weight change rate (%): -8%
DIO mice; [43]
  Mouse weight: 45.2 g
DIO mice; [44]
  Mouse weight change: -4.9 g
  Mouse weight change rate (%): -9.8%
DIO mice; [45]
  Mouse weight: 45.0 g
DIO mice; [46]
  Mouse weight change: -5.1 g
  Mouse weight change rate (%): -10.2%
DIO mice; [47]
  Mouse weight: 44.5 g
DIO mice; [48]
  Mouse weight change: -5.6 g
  Mouse weight change rate (%): -11.2%
DIO mice; [49]
  Mouse weight: 44.5 g
DIO mice; [50]
  Mouse weight change: -5.6 g
  Mouse weight change rate (%): -11.2%
MAO-B
  IC50: < 50 nM

## C[C@H](NCc1ccc(-c2ccc(C(F)(F)F)cc2)cc1Cl)C(N)=O
MAO-A
  IC50: 2000 to 10000 nM
MAO-B
  IC50: 50 to 100 nM

## C[C@H](NCc1ccc(-c2ccc(Cl)c(Cl)c2)cc1)C(N)=O
MAO-B
  IC50: 50 to 100 nM

## C[C@H](NCc1ccc(-c2ccc(C(F)(F)F)cc2)cc1)C(N)=O
MAO-A
  IC50: > 10000 nM
DIO mice; [1]
  Mouse weight: 49.7 g
DIO mice; [2]
  Mouse weight change: 0 g
  Mouse weight change rate (%): 0%
DIO mice; [3]
  Mouse weight: 50.1 g
DIO mice; [4]
  Mouse weight change: 0.4 g
  Mouse weight change rate (%): 0.8%
DIO mice; [5]
  Mouse weight: 49.4 g
DIO mice; [6]
  Mouse weight change: -0.3 g
  Mouse weight change rate (%): -0.6%
DIO mice; [7]
  Mouse weight: 49.5 g
DIO mice; [8]
  Mouse weight change: -0.2 g
  Mouse weight change rate (%): -0.4%
DIO mice; [9]
  Mouse weight: 49.1 g
DIO mice; [10]
  Mouse weight change: -0.6 g
  Mouse weight change rate (%): -1.2%
DIO mice; [11]
  Mouse weight: 49.2 g
DIO mice; [12]
  Mouse weight change: -0.5 g
  Mouse weight change rate (%): -1%
DIO mice; [13]
  Mouse weight: 49.1 g
DIO mice; [14]
  Mouse weight change: -0.6 g
  Mouse weight change rate (%): -1.2%
DIO mice; [15]
  Mouse weight: 48.7 g
DIO mice; [16]
  Mouse weight change: -1.0 g
  Mouse weight change rate (%): -2%
DIO mice; [17]
  Mouse weight: 48.8 g
DIO mice; [18]
  Mouse weight change: -0.9 g
  Mouse weight change rate (%): -1.8%
DIO mice; [19]
  Mouse weight: 48.7 g
DIO mice; [20]
  Mouse weight change: -1.0 g
  Mouse weight change rate (%): -2%
DIO mice; [21]
  Mouse weight: 48.8 g
DIO mice; [22]
  Mouse weight change: -0.9 g
  Mouse weight change rate (%): -1.8%
DIO mice; [23]
  Mouse weight: 48.9 g
DIO mice; [24]
  Mouse weight change: -0.8 g
  Mouse weight change rate (%): -1.6%
DIO mice; [25]
  Mouse weight: 48.7 g
DIO mice; [26]
  Mouse weight change: -1.0 g
  Mouse weight change rate (%): -2%
DIO mice; [27]
  Mouse weight: 48.4 g
DIO mice; [28]
  Mouse weight change: -1.3 g
  Mouse weight change rate (%): -2.6%
DIO mice; [29]
  Mouse weight: 48.1 g
DIO mice; [30]
  Mouse weight change: -1.6 g
  Mouse weight change rate (%): -3.2%
DIO mice; [31]
  Mouse weight: 48.4 g
DIO mice; [32]
  Mouse weight change: -1.3 g
  Mouse weight change rate (%): -2.6%
DIO mice; [33]
  Mouse weight: 48.1 g
DIO mice; [34]
  Mouse weight change: -1.6 g
  Mouse weight change rate (%): -3.2%
DIO mice; [35]
  Mouse weight: 48.3 g
DIO mice; [36]
  Mouse weight change: -1.4 g
  Mouse weight change rate (%): -2.8%
DIO mice; [37]
  Mouse weight: 48.3 g
DIO mice; [38]
  Mouse weight change: -1.4 g
  Mouse weight change rate (%): -2.8%
DIO mice; [39]
  Mouse weight: 48.5 g
DIO mice; [40]
  Mouse weight change: -1.2 g
  Mouse weight change rate (%): -2.4%
DIO mice; [41]
  Mouse weight: 48.4 g
DIO mice; [42]
  Mouse weight change: -1.3 g
  Mouse weight change rate (%): -2.6%
DIO mice; [43]
  Mouse weight: 48.0 g
DIO mice; [44]
  Mouse weight change: -1.7 g
  Mouse weight change rate (%): -3.4%
DIO mice; [45]
  Mouse weight: 48.0 g
DIO mice; [46]
  Mouse weight change: -1.7 g
  Mouse weight change rate (%): -3.4%
DIO mice; [47]
  Mouse weight: 47.5 g
DIO mice; [48]
  Mouse weight change: -2.2 g
  Mouse weight change rate (%): -4.4%
DIO mice; [49]
  Mouse weight: 47.2 g
DIO mice; [50]
  Mouse weight change: -2.5 g
  Mouse weight change rate (%): -5%

## NC(=O)[C@@H]1CCN1Cc1ccc(-c2ccc(C(F)(F)F)cc2)cc1
MAO-A
  IC50: > 10000 nM
MAO-B
  IC50: < 50 nM

## NC(=O)C1(NCc2ccc(-c3ccc(C(F)(F)F)cc3)cc2)COC1
MAO-B
  IC50: 50 to 100 nM

## C[C@H](NCc1ccc(-c2ccc(C(F)(F)F)s2)cc1)C(N)=O
MAO-B
  IC50: 50 to 100 nM
